Measured values as given in ChEMBL document CHEMBL1122142, “Synthesis and antiinflammatory activity of hexahydrothiopyrano[4,3-c]pyrazoles and related analogues” (J Med Chem, 1982).

Test: Therapeutic ratio was determined for intraperitoneal administration
Assay type: ADME
Conditions: ip

## COc1ccc2cc([C@H](C)C(=O)O)ccc2c1 [NAPROXEN]
  TR: 3
